According to patent US20230242601A1, “PEPTIDE USED TO PREVENT OR TREAT SYNUCLEINOPATHY” (TOHOKU UNIVERSITY, priority 2020, published 2023):

Target: FABP3 fused with a His-tag at the N-terminus
Test: QCM, analyte added to immobilised FABP3

- Kd: 0.4 nM
Substance: wild-type α-synuclein (full length) (from UniProt P37840 1-140)
